In US10030103B2, “Stable helical ionic polypeptides” (The Board of Trustees of the University of Illinois, priority 2010, dated 2018):
“Also recorded” adds a separate entry of the source. Read-outs that look alike come from different tables or passages of the source. Blank lines part the entries; values can stand above or below the substance they belong to.

Legend:
[1] = Circular dichroism (CD) analysis of polypeptide conformation in aqueous solution; type: physicochemical; conditions: for conformation: aqueous solution and solid state; for −[θ]222 versus degree of polymerization: pH 3 (FIG. 11); for Helical content: (−[θ]222 + 3000)/39,000; for pH dependence of −[θ]222 / helical conformation: pH range as stated in the value; for decrease of −[θ]222 value: from 4° C. to 70° C.
[2] = Water solubility
[3] = aqueous solution; cited from earlier work
[4] = Table 1, CD of PVBLG-X in water
[5] = Table 9-2, aqueous solution, pH 2 (pH 10 for (PAOBLG-MPA)10, FIG. 82a)
[6] = PVBLG-1, charges 11 σ-bonds from backbone
[7] = 25 mM NaCl solutions, c=0.028 mg/mL

- conformation by CD ([1]; aqueous solution, pH 1): distorted conformation
Substance: poly(γ-(3-aminopropyl)-L-glutamate)) [PAPG57]

Substance: methyl-terminated poly(ethylene glycol) block cysteamine hydrochloride grafted poly (O-allyl-L-serine) [6a]
- conformation [1]: β-sheet conformation
- solubility in water [2]: not able to re-dissolve in DI water

- −[θ]222 versus length of the polymer ([1]; Table 1): 55,000 cm^2·deg·dmol^−1
- −[θ]222 × 10^−3 [1, 4]: 55.0 cm^2 · deg · dmol^−1
- −[θ]222 versus degree of polymerization [1]: 55,000 deg·cm^2·dmol^−1
Substance: poly(γ-(4-(1-hexanol-6-aminomethyl))benzyl-L-glutamate) [(PVBLG-1)142]

- Helical content ([1]; Table 9-2): 94%
- −[θ]222 × 10^−3 [1, 5]: 34.0 cm^2 · deg · dmol^−1
- helicity ([1]; pH 2): 94%
- −[θ]222 ([1]; pH 2): 34.0 ×10^3 cm^2·deg·dmol^−1
Substance: Poly(γ-(4-aminoethylthiopropoxyl)-benzyl-L-glutamate) [(PAOBLG-AET)20]

Substance: Poly(N-hydroxyalkyl-L-glutamine)
- helicity [3]: ≤ 65%

- helicity [1, 6]: 26%
- −[θ]222 versus length of the polymer ([1]; Table 1): 7,200 cm^2·deg·dmol^−1
- −[θ]222 × 10^−3 [1, 4]: 7.2 cm^2 · deg · dmol^−1
- Helical content ([1]; Table 9-2): 26%
- −[θ]222 × 10^−3 [1, 5]: 7.2 cm^2 · deg · dmol^−1
- helicity ([1]; pH 2): 26%
- −[θ]222 ([1]; pH 2): 7.2 ×10^3 cm^2·deg·dmol^−1
- −[θ]222 versus degree of polymerization [1]: 7170 deg·cm^2·dmol^−1
Substance: poly(γ-(4-(1-hexanol-6-aminomethyl))benzyl-L-glutamate) [(PVBLG-1)10]

- −[θ]222 versus length of the polymer ([1]; Table 1): 23,100 cm^2·deg·dmol^−1
- −[θ]222 × 10^−3 [1, 4]: 23.1 cm^2 · deg · dmol^−1
- −[θ]222 versus degree of polymerization [1]: 23,200 deg·cm^2·dmol^−1
Substance: poly(γ-(4-(1-hexanol-6-aminomethyl))benzyl-L-glutamate) [(PVBLG-1)40]

Substance: Poly(γ-(4-carboxylic acid benzyl) glutamate)
- pH dependence of −[θ]222 / helical conformation [1]: maintains its helical conformation at each pH tested (pH=2-9); also recorded: can maintain its helical conformation traversing each pH tested (pH=2-9)

Substance: Poly(γ-(4-aminoethylthiopropoxyl)-benzyl-L-glutamate) [(PAOBLG-AET)10]
- −[θ]222 ([1]; 4° C., pH 2, 0.05 mg·mL^−1): 28,800 cm^2·deg·dmol^−1
- original helical content maintained ([1]; 5M urea): ~100%
- −[θ]222 ([1]; 70° C., pH 2, 0.05 mg·mL^−1): 21,600 cm^2·deg·dmol^−1
- Helical content ([1]; Table 9-2): 81%
- −[θ]222 × 10^−3 [1, 5]: 28.5 cm^2 · deg · dmol^−1
- decrease of −[θ]222 value ([1]; pH 2): 25%
- helicity ([1]; pH 2): 81%
- −[θ]222 ([1]; pH 2): 28.5 ×10^3 cm^2·deg·dmol^−1

Substance: Poly(γ-(6-aminohexyl)-L-glutamate)) [PAHG57]
- −[θ]222 [1, 7]: ~14 ×10^3 cm^2·deg/dmol
- −[θ]222 ([1]; 4° C., pH 3): 15,900 cm^2·deg·dmol^−1
- −[θ]222 ([1]; 70° C., pH 3): 8,700 cm^2·deg·dmol^−1
- −[θ]222 on change of NaCl concentration ([1]; NaCl 0 to 4.68 M, pH 3, 25° C.): remained nearly unchanged
- conformation by CD ([1]; aqueous solution, pH 1): α-helical conformation
- decrease of −[θ]222 value ([1]; pH 3): 45%
- −[θ]222 ([1]; pH 1): 14,000 cm^2·deg·dmol^−1
- −[θ]222 ([1]; pH 10): 14,200 cm^2·deg·dmol^−1
- pH dependence of −[θ]222 / helical conformation [1]: remarkable pH-independent helical stability at pH values ranging from 1 to 10

Substance: poly(γ-(4-(1-hexanol-6-aminomethyl))benzyl-L-glutamate) [(PVBLG-1)60]
- −[θ]222 [1, 7]: ~32 ×10^3 cm^2·deg/dmol
- −[θ]222 ([1]; 4° C., pH 3): 31,700 cm^2·deg·dmol^−1
- −[θ]222 ([1]; 70° C., pH 3): 25,100 cm^2·deg·dmol^−1
- helicity [1, 6]: 91%
- −[θ]222 × 10^−3 [1, 4]: 30.1 cm^2 · deg · dmol^−1
- decrease of −[θ]222 value ([1]; pH 3): 21%
- −[θ]222 ([1]; pH 1): 32,600 cm^2·deg·dmol^−1
- −[θ]222 versus degree of polymerization [1]: 30,100 deg·cm^2·dmol^−1
- pH dependence of −[θ]222 / helical conformation [1]: remained unchanged when the solution's pH was increased from 1 to 10; also recorded: remains unchanged between pH 1 and 10
- water solubility ([2]; pH 1-10): > 40 mg/kg

- Helical content ([1]; Table 9-2): 100%
- −[θ]222 × 10^−3 [1, 5]: 36.8 cm^2 · deg · dmol^−1
- helicity ([1]; pH 2): 100%
- −[θ]222 ([1]; pH 2): 36.8 ×10^3 cm^2·deg·dmol^−1
Substance: Poly(γ-(4-aminoethylthiopropoxyl)-benzyl-L-glutamate) [(PAOBLG-AET)50]

- helicity / helical content ([1]; degree of polymerization 10, pH 2 aqueous solution): 81%
Substance: Poly(γ-(4-aminoethylthiopropoxyl)-benzyl-L-glutamate) [PAOBLG-AET]

Substance: methyl-terminated poly(ethylene glycol) block cysteamine hydrochloride grafted poly (O-pentenyl-L-serine) [6b]
- conformation [1]: β-sheet conformation
- solubility in water [2]: not able to re-dissolve in DI water
